Results taken from patent publication US20260256778A1 (AbbVie Inc., priority 2023, published 2026).

System: non-segmental vitiligo (NSV)
Conditions: for Percent CFB in F-VASI; LSMEAN (SE): Week 24, MMRM
[1] = 11 mg, Week 52, Intent-to-Treat, MMRM/NRI-MI
[2] = 22 mg, Week 52, Intent-to-Treat, MMRM/NRI-MI

## CC[C@@H]1CN(C(=O)NCC(F)(F)F)C[C@@H]1c1cnc2cnc3[nH]ccc3n12 [Upadacitinib, (3S,4R)-3-ethyl-4-(3H-imidazo[1,2-a]pyrrolo[2,3-e]pyrazin-8-yl)-N-(2,2,2-trifluoroethyl) pyrrolidine-1-carboxamide]
6 mg QD, Week 24
  % Achieving much better or a little better on PhGIC: 42.9%
  F-VASI 50; (%): 16.3%
6 mg, Week 52, Intent-to-Treat, MMRM/NRI-MI
  T-VASI 50 (%): 24.5%
11 mg QD oral
  Percent CFB in F-VASI; LSMEAN (SE): met the primary endpoint
11 mg QD, Week 24
  % Achieving much better or a little better on PhGIC: 59.6%
  F-VASI 50; (%): 38.3%
  T-VASI 50 (%): did not meet the T-VASI 50 secondary endpoint
11 mg, Week 52, As Observed
  F-VASI 75 (%): 63.2%
  T-VASI 50 (%): 39.5%
[1]
  F-VASI 75 (%): 51.1%
  T-VASI 50 (%): 31.9%
22 mg QD oral
  Percent CFB in F-VASI; LSMEAN (SE): met the primary endpoint
22 mg, Week 52, As Observed
  F-VASI 75 (%): 37.9%
  T-VASI 50 (%): 41.4%
[2]
  F-VASI 75 (%): 25.6%
  T-VASI 50 (%): 27.9%

Where two headings read alike, the source gives them in different places.
